The subject of experiment [1] is tumor-associated macrophages. Kind of experiment: RT-qPCR analysis of macrophages sorted from KPL4 xenografts. Type of experiment: in vivo, mouse. Particulars: FIG. 8F. How it is done:
(§1) FIG. 8. […] (A-B) Kaplan-Meier survival curve for breast cancer (BC) patients METABRIC Dataset. (A) Stratified into low and high groups based on average expression of CD47 in all patients. (B) The same patient stratification based on disease subtype (ER+, HER2+ and TNBC). (C) CD47 knockout in human HER2+ BC line KPL-4 was generated using CRISPR-Cas9 approach. […] Antibody-dependent-cellular-phagocytosis (ADCP) activity were measured by percentage of hMDM uptake of labeled KPL-4 cells (CD45+ and BV450+). Mean±SEM, biological replicates n=4. Experiment has been repeated using hMDMs generated from three healthy PBMC donors. (D) Control or CD47-KO KPL-4 cells were implanted into mammary fat pads of SCID-Beige Balb/c mice (5×10^5 cells). […] Two-way ANOVA test with Tukey's multiple comparisons, ****P<0.0001. […] Mean±SEM, n=7. […] Mean±SEM, n=7. Multiple two-sided t-test. (C and E) One-way ANOVA test with Tukey's multiple comparisons, *P<0.05, **P<0.01, ***P<0.001.
KPL4 xenografts were processed into single cell suspensions as described above, and tumor associated macrophages were sorted by FACS (Live CD45+ CD11b+ Gr1− and F4/80+). RNA were isolated from sorted macrophages using RNeasy Mini Kit (Qiagen) and cDNA were generated using “All-in-One cDNA Synthesis Supermix (Biotool B24403). RT-qPCR were performed using 2× SYBR Green qPCR Master Mix (Biotool B21202).
A general note: Quantitative PCR measures a nucleic acid by following its amplification.

The next experiment relates to KPL-4 tumors. Kind of experiment: KPL-4 xenograft in SCID-Beige mice. It counts as in vivo, mouse. Particulars: 50 μg weekly; FIG. 8D. How it is done:
as §1

Another experiment deals with T1, mouse FCGR4 (Mus musculus, UniProt A0A0B4J1G0).
T1 construct: expressed in transfected cells; host or cells: Jurkat-NFAT-LUC (Invivogen jktl-nfat), lentiviral transduction, puromycin selection
T1 sequence (A0A0B4J1G0 21-249): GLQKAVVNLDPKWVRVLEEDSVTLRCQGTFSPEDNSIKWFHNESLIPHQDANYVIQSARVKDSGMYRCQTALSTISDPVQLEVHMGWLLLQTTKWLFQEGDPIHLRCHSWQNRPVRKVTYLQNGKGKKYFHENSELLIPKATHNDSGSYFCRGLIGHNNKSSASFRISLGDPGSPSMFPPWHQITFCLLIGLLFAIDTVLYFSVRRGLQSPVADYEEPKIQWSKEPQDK
Briefly: FCGR signaling activation assay (Jurkat NFAT-luciferase), FCGR4. It counts as cell-based. Particulars: NFAT-luciferase reporter, FIG. 2H. The protocol:
(§2) FIG. 2. […] (F-H) Mouse FCGR signaling activation assay.
(§3) Jurkat cells expressing mouse Fcgr1, Fcgr2b, Fcgr3 or Fcgr4 with NFAT-Luciferase reporter were generated with lentiviral transduction and selected with puromycin (validated in FIG. 12D-F). […] Jurkat-FCGR-NFAT-LUC effector cells were added and co-cultured for 4 hours. FCGR signaling activation were assessed by luciferase activity quantification.
Background: In a reporter assay the amount or activity of a reporter protein is the signal.

In another experiment the target is T2, mouse FCGR1 (Mus musculus, UniProt P26151).
T2 construct: expressed in transfected cells; host or cells: Jurkat-NFAT-LUC (Invivogen jktl-nfat), lentiviral transduction, puromycin selection
T2 sequence (P26151 25-404): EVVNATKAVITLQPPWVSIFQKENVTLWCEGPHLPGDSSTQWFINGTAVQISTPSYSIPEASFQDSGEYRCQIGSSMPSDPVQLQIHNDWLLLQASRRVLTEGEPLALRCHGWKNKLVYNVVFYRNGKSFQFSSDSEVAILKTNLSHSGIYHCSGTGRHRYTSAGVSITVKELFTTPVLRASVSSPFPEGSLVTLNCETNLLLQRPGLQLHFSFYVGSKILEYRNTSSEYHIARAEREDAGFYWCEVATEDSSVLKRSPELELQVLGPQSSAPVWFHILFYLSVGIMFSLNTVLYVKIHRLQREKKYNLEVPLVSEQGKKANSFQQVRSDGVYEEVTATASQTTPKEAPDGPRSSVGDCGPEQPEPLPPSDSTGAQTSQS
Kind of experiment: FCGR signaling activation assay (Jurkat NFAT-luciferase), FCGR1. It counts as cell-based. Particulars: NFAT-luciferase reporter, FIG. 2F. How it is done: as §2, §3

The test system of another experiment is KPL4 and SKBR3 cells. Kind of experiment: MTT assay of HER2+ breast cancer cell growth in vitro. It counts as cell-based, human. The conditions noted are these: 3 days post treatment, FIG. 9E. The protocol: FIG. 9. […] EC50 for each binding assay were calculated using non-linear regression curve fit, Assymetric Sigmoidal model in Graphpad Prism software. […] ELISA assays using Trastuzumab as antigen were performed to determine anti-Trastuzumab responses in mouse serum. (C-D) HER2 signaling assays were performed using 293T cells stably transduced with dox-inducible HER2Δ16. Cells were treated with dox and transfected with luciferase reporter constructs for (C) MAPK/ERK or (D) AP-1/c-JUN pathways activation. […] The HER2-Tyrosine kinase inhibitor Lapatinib were used as positive assay control at the highest possible dose (500 nM) without inducing cell toxicity.
On the technique in general: Tetrazolium dyes change colour on reduction, which living cells bring about.

In the next experiment the test system is KPL-4 cells. Kind of experiment: ADCP assay with human monocytes-derived macrophages (hMDM). Type of experiment: cell-based. The conditions noted are these: CD47-KO versus control KPL-4; Trastuzumab 10 μg/mL; FIG. 8C. The protocol: as §1
ADCP and ADCC by macrophages—Bone marrow derived macrophages (BMDM) were generated from mouse tibia, differentiated for 10 days with 50 ng/mL mouse MCSF (Peprotech 315-02). Briefly, 50 million bone marrow cells were plated in 10 cm^2 tissue culture dish with MCSF on day 0. […] After 2 hours co-culture, phagocytosis of BV450-labeled tumor cells by BMDM were analyzed by FACS with CD45-APC staining and Live-death (Red) staining. […]

In experiment [2] the test system is tumor-associated macrophages (TAM). Kind of experiment: Flow cytometry analysis of tumor infiltrating immune cells. Type of experiment: in vivo, mouse. How it is done:
When tumor growth reached humane end point size (>1000 mm^3), whole tumors from mice were harvested and cut into <1 mm small pieces, and incubated for 1 hour in digestion buffer (DMEM+100 μg/mL collagenase+0.2 U/mL DNAse+1 μg/mL hyalurodinase). Single cell suspensions were spin down through a 70 μm filter and washed with medium. Approximately 5 million cells were used for staining and flow cytometry analysis. The following panel of immune cell markers (Biolegend) were used: CD45 BV650, CD11b PE-Cy7, LY6G APC, LY6C BV410, F4/80 PerCP-CY5.5, CD8B APC-CY7, CD4 PE-TR, CD49b FITC and viability dye (Aqua or Red). Tumor-associated macrophages (TAM) were identified by F4/80+ LY6G− LY6C− CD11b+ CD45+ gating. LY6G+ neutrophils were identified by LY6G+ CD11b+ CD45+ gating, whereas LY6C+ monocytes were gated on LY6C+ CD11b+ CD45+ cells.

In experiment [3] the test system is CEM.NKR expressing HER2 and luciferase. Briefly: In vitro NK cell mediated ADCC assay. It counts as cell-based. Particulars: co-culture, NK.92 expressing mouse FCGR3 as effector cells. How it is done: FIG. 10. […] (B-C) Anti-tumor specific T cell responses as measured by IFNγ ELISPOT against human HER2 peptides using mouse splenocytes from (B) MM3MG-HER2Δ16 orthotopic model or (C) HER2 transgenic model (described in FIG. 5A). (D) In vitro NK cell mediated ADCC assay were performed using NK.92 expressing mouse FCGR3 as effector cells and CEM.NKR expressing HER2 and luciferase as target cells. […] Mean±SEM, biological replicates n=4, two-sided t-test, ***P<0.001. (E) In vitro Complement-dependent-cytotoxicity (CDC) assay were performed using 25% human serum treatment (4 hours) on MM3MG-HER2Δ16 lines expressing luciferase.

[4] abbreviates: MM3MG-HER2Δ16 tumors in Balb/c mice.

For “Trastuzumab: HER2-specific humanized monoclonal antibody, human IgG1 isotype, high A/I ratio (SEQ ID NOs: 1-2)”, the “pro-inflammatory gene expression in sorted TAMs” value in experiment [1] is “upregulation of pro-inflammatory genes”. In the experiment on KPL-4 tumors, the “tumor growth of CD47-KO KPL-4” value is “tumors being completely eliminated” and the “tumor growth of control KPL-4” value is given as “strong effect”. The FCGR4 signaling activation entry in the experiment with mouse FCGR4 is “strong human-murine cross-reactivity”. Moreover, the FCGR1 signaling activation entry with mouse FCGR1 is “strong human-murine cross-reactivity”. In the experiment on KPL4 and SKBR3 cells, the “tumor cell growth in vitro” value is “not significantly enough to prevent tumor cell growth in vitro”. Besides, the “ADCP of KPL-4 cells by hMDM” value in the experiment on KPL-4 cells is recorded as “increased their susceptibility to ADCP elicited by Trastuzumab”. Further, the TAM levels entry in experiment [2] (KPL-4 xenografts in SCID-beige mice, FIG. 8E) was “significant increase of TAMs”. In addition, in experiment [2] (setting [4]), the TAM levels result is recorded as “significantly increased the levels of tumor-associated macrophages”; the “other immune infiltrates (NK cells, T cells)” value was “did not increase other immune infiltrates such as NK cells and T cells”. Further, in experiment [3], the “NK cell-mediated ADCC” value was “increased”.

These data come from patent US20220049015A1, “COMPOSITIONS AND METHODS FOR THE TREATMENT AND/OR PREVENTION OF HER2+ CANCERS” (DUKE UNIVERSITY, priority 2018, published 2022).
